# Article PMC5411959, “Potential Antiosteoporotic Natural Product Lead Compounds That Inhibit 17β-Hydroxysteroid Dehydrogenase Type 2” (Journal of Natural Products, 2017)
# Target: T1, human 17β-HSD1 (Homo sapiens, UniProt P14061)
# T1 construct: expressed in transfected cells; host or cells: HEK-293 (ATCC), used as cell lysate
# T1 sequence (P14061 1-328): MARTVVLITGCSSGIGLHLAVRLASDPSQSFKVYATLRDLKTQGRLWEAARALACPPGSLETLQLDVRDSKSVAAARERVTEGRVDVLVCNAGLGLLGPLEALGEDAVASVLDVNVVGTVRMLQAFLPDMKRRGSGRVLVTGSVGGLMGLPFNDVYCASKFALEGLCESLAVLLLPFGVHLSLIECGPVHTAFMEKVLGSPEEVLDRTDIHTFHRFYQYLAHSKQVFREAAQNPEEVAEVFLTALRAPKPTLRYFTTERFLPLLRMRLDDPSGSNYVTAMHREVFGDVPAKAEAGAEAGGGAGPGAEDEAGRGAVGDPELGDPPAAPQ
# Experiment: 17β-HSD1 activity assay using lysates of HEK-293 cells expressing the recombinant human enzyme
# Format: biochemical
# Settings: for selectivity factor: 17β-HSD1 versus 17β-HSD2
selectivity factor,Compound,selectivity over 17β-HSD1 (17β-HSD2 over 17β-HSD1) [fold]
>12,"O=C(Cc1ccc(O)c(Cl)c1)NCCc1ccccc1 [compound 13, 2-(3-chloro-4-hydroxyphenyl)-N-phenethylacetamide]",
>20,"O=C(Cc1ccc(O)c(Cl)c1)NCCc1c[nH]c2ccccc12 [compound 17, N-(2-(1H-indol-3-yl)ethyl)-2-(3-chloro-4-hydroxyphenyl)acetamide]",
>5,"O=C(Cc1ccc(O)c(Cl)c1)NCc1ccccc1 [compound 16, N-benzyl-2-(3-chloro-4-hydroxyphenyl)acetamide]",

Compound,selectivity factor,selectivity over 17β-HSD1 (17β-HSD2 over 17β-HSD1) [fold]
"CCOC(=O)c1ccc(O)c(OC)c1 [compound 12, ethyl vanillate]",>15,≥ 8
